Target: T1, PDE4A1A (Homo sapiens, UniProt P27815)
T1 construct: purchased BPS 60040
Experiment: PDE4 activity inhibition assay, PDE4A1A
Format: biochemical
Details: FAM-cAMP substrate, 30 minutes at room temperature
Experimental: The IC50 value of the inhibitory effect of the compound on PDE4A1A, PDE4B1 and PDE4D3 was tested.
Positive compound: Trequinsin (Sigma, Cat. No. T2057).
Equipment: Wallac Victor Multi-label counter (Perkin Elmer).
I. Preparing 1× reaction liquid and termination liquid;
II. PDE enzymatic reaction; • 1) The PDE was dissolved in 1× reaction solution to form 2× enzyme solution. • 2) FAM-cAMP was dissolved in 1× reaction solution to form 2× substrate solution. • 3) Echo 550 was used to transfer the corresponding volume of the compound in DMSO solution to the reaction plate. • 4) 2× enzyme solution was added into the corresponding well of the reaction plate and incubated with the compound solution at room temperature for 15 minutes. • 5) 2× substrate solution was added into the corresponding well of the reaction plate to initiate the reaction. • 6) Reaction plate was incubated at room temperature for 30 minutes and terminated by adding termination liquid, then incubated at room temperature for 60 minutes.
The inhibition rate was calculated by Excel; IC50 was calculated by GraphPad Prism.

Sequences of proteins named here, by UniProt entry; tags and fusion partners are left off. Residues count along the entry.
UniProt P27815, 1-647 isoform P27815-4: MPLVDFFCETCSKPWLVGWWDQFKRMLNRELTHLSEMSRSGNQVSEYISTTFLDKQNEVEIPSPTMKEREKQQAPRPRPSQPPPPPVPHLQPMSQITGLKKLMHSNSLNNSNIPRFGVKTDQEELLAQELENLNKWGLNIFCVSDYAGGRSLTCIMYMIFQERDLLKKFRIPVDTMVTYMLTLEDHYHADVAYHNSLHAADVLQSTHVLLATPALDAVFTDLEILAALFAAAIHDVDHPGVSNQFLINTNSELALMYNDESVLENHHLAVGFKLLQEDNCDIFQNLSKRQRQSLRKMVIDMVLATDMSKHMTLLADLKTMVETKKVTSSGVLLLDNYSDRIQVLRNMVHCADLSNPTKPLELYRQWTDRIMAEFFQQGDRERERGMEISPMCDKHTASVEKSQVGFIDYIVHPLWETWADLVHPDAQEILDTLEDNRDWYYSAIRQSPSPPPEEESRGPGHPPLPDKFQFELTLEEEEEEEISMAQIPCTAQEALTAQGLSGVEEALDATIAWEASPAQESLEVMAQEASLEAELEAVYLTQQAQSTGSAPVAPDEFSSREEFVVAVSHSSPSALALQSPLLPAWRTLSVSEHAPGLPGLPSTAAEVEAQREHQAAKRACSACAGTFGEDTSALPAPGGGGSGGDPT

Structure (SMILES)	IC50
CCOc1cc(C(CS(C)(=O)=O)N2C(=O)c3cccc(NC(C)=O)c3C2=O)ccc1OC (centres unmarked) [Reference compound 1, reference compound]	22 nM
CCOc1cc([C@@H](CS(C)(=O)=O)N2C(=O)c3cccc(NC(C)=O)c3C2=O)ccc1OC [Reference compound 2, reference compound]	9.85 nM
